The source of these data is patent publication EP4671280A1 (Nanjing Leads Biolabs Co., Ltd., dated 2025).

This test concerns the target T1, human Nectin-1 protein (ACRO Biosystems, Cat. No. PV1-H5223) (human, UniProt Q15223 31-334).
T1 sequence (looked up): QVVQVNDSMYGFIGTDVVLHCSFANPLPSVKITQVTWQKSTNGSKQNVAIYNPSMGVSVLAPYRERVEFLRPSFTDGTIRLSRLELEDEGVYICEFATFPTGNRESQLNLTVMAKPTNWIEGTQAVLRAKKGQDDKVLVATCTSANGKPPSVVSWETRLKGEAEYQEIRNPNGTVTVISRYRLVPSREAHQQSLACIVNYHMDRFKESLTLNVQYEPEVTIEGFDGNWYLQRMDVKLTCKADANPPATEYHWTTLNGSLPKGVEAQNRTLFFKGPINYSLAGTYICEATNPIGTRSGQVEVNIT
The test is described as follows: ELISA, Nectin family protein immobilised on plate. (ELISA stands for enzyme-linked immunosorbent assay.)

B1: Antibody 6-B9B6 (murine chimeric anti-Nectin-4 antibody) (antibody, human IgG1, kappa, V domains shown)
VH: EVHLVESGGGLVQPGGSLKLSCAASGFTFSSYGMSWVRQTPDKRLELVATINNIGGSTFPPDSVKGRFTVSRDNAKNTLYLQMSSLKSEDTAMYYCARAYDYVPFAYWGQGTLVTVSA
VL: DIQMTQSSSYLSVSLGGRVTITCKASDHINNWLAWYQQKPGNAPRLLISGATSLETGVPSRFSGSGSGKDYALSIASLQTEDVATYYCQQYWSTPFTFGSGTKLEIKR
notes: Mouse variable regions on human IgG1 / human kappa constant regions
Consider B1, for which the binding result is “no binding”.

B2: Antibody 23-H4F3 (murine chimeric anti-Nectin-4 antibody) (antibody, human IgG1, kappa, V domains shown)
VH: QVQLQQSGPELVKPGASVRISCKASGYTFTSYYIHWVKQRPGQGLEWIGWIYPGNVNTKYNEKFKGKATLTADKSSSTAYMQLISLTSEDSAVYFCARGVYYFDFWGQGTTLTVSS
VL: SIVMTQTPKFLLVSAGDRVTLTCKASQSVSNDVAWFQQKPGQSPKLLIYYALNRYTGVPDRFTGSGYGTDFTFTISTVQAEDLAVYFCQQDYSSPYTFGGGTKLEIKR
notes: Mouse variable regions on human IgG1 / human kappa constant regions, expressed in ExpiCHO-S cells; also called chimeric antibody 23-H4F3
B2: the binding result was “no binding”.
